Organism: Rattus norvegicus
Experiment: Open TG-GATES - Regimen: Single
Assay type: toxicity, organism-based, Sprague-Dawley
Set-up: regimen Single, gender Male, age 6 weeks
Conditions: in vivo, po, route gavage; for Hb / Ht / MCH / Plat: tissue Blood
[1] = 0 mg/kg, 3 h, dose level Control
[2] = 0 mg/kg, 3 h, tissue Plasma, dose level Control
[3] = 0 mg/kg, 6 h, dose level Control
[4] = 0 mg/kg, 6 h, tissue Plasma, dose level Control
[5] = 0 mg/kg, 9 h, dose level Control
[6] = 0 mg/kg, 9 h, tissue Plasma, dose level Control
[7] = 0 mg/kg, 24 h, dose level Control
[8] = 0 mg/kg, 24 h, tissue Plasma, dose level Control
[9] = 60 mg/kg, 3 h, tissue Plasma, dose level Low
[10] = 60 mg/kg, 6 h, tissue Plasma, dose level Low
[11] = 60 mg/kg, 9 h, tissue Plasma, dose level Low
[12] = 60 mg/kg, 24 h, tissue Plasma, dose level Low
[13] = 200 mg/kg, 3 h, dose level Middle
[14] = 200 mg/kg, 3 h, tissue Plasma, dose level Middle
[15] = 200 mg/kg, 6 h, dose level Middle
[16] = 200 mg/kg, 6 h, tissue Plasma, dose level Middle
[17] = 200 mg/kg, 9 h, dose level Middle
[18] = 200 mg/kg, 9 h, tissue Plasma, dose level Middle
[19] = 200 mg/kg, 24 h, dose level Middle
[20] = 200 mg/kg, 24 h, tissue Plasma, dose level Middle
[21] = 600 mg/kg, 3 h, dose level High
[22] = 600 mg/kg, 3 h, tissue Plasma, dose level High
[23] = 600 mg/kg, 6 h, dose level High
[24] = 600 mg/kg, 6 h, tissue Plasma, dose level High
[25] = 600 mg/kg, 9 h, dose level High
[26] = 600 mg/kg, 9 h, tissue Plasma, dose level High
[27] = 600 mg/kg, 24 h, dose level High
[28] = 600 mg/kg, 24 h, tissue Plasma, dose level High

## CS(=O)(=O)O.Cc1ccc(NC(=O)c2ccc(CN3CCN(C)CC3)cc2)cc1Nc1nccc(-c2cccnc2)n1 [IMATINIB MESYLATE]
[1]
  TERMINAL_BW: 202.9 g
  Hb: 12.7 g/dL
  Ht: 38.9%
  MCH: 21 pg
  Plat: 110.9 x10_4/uL
[2]
  ALT: 42.4 IU/L
  BUN: 14.8 mg/dL
  Ca: 10.8 mg/dL
  TG: 90.1 mg/dL
[3]
  TERMINAL_BW: 196.3 g
  Hb: 12.9 g/dL
  Ht: 38.9%
  MCH: 20.9 pg
  Plat: 120.5 x10_4/uL
[4]
  ALT: 38 IU/L
  BUN: 11 mg/dL
  Ca: 10.8 mg/dL
  LDH: 201 IU/L
  TG: 56.4 mg/dL
[5]
  TERMINAL_BW: 195.3 g
  Hb: 12.8 g/dL
  Ht: 38.4%
  MCH: 20.8 pg
  Plat: 123 x10_4/uL
[6]
  ALT: 39 IU/L
  BUN: 10.8 mg/dL
  Ca: 10.7 mg/dL
  TG: 48.2 mg/dL
[7]
  TERMINAL_BW: 207.7 g
  Hb: 13.1 g/dL
  Ht: 39.8%
  MCH: 21.6 pg
  Plat: 119.2 x10_4/uL
[8]
  ALT: 38 IU/L
  BUN: 17.3 mg/dL
  Ca: 10.9 mg/dL
  TG: 132.6 mg/dL
60 mg/kg, 3 h, dose level Low
  TERMINAL_BW: 201.4 g
  Hb: 12.4 g/dL
  Ht: 38%
  MCH: 20.6 pg
  Plat: 113.9 x10_4/uL
[9]
  ALT: 39.6 IU/L
  BUN: 13.4 mg/dL
  TG: 66.7 mg/dL
60 mg/kg, 6 h, dose level Low
  TERMINAL_BW: 198.5 g
  Hb: 12.9 g/dL
  Ht: 39.2%
  MCH: 20.8 pg
  Plat: 116.8 x10_4/uL
[10]
  ALT: 39.8 IU/L
  BUN: 9.6 mg/dL
  TG: 82.7 mg/dL
60 mg/kg, 9 h, dose level Low
  TERMINAL_BW: 196.4 g
  Hb: 12.8 g/dL
  Ht: 38.8%
  MCH: 20.9 pg
  Plat: 111.6 x10_4/uL
[11]
  ALT: 37 IU/L
  BUN: 9.7 mg/dL
  Ca: 10.5 mg/dL
  TG: 75.7 mg/dL
60 mg/kg, 24 h, dose level Low
  TERMINAL_BW: 211.5 g
  Hb: 12.6 g/dL
  Ht: 38%
  MCH: 21.4 pg
  Plat: 120.9 x10_4/uL
[12]
  ALT: 47.2 IU/L
  BUN: 15.2 mg/dL
  Ca: 10.7 mg/dL
  TG: 119.2 mg/dL
[13]
  TERMINAL_BW: 199.7 g
  Hb: 12.3 g/dL
  Ht: 37.9%
  MCH: 20.5 pg
  Plat: 118.1 x10_4/uL
[14]
  ALT: 47.4 IU/L
  BUN: 12.6 mg/dL
  Ca: 10 mg/dL
  TG: 50.4 mg/dL
[15]
  TERMINAL_BW: 201.3 g
  Hb: 12.5 g/dL
  Ht: 38.1%
  MCH: 20.6 pg
  Plat: 131.4 x10_4/uL
[16]
  ALT: 44 IU/L
  BUN: 9.3 mg/dL
  Ca: 10.1 mg/dL
  TG: 63.2 mg/dL
[17]
  TERMINAL_BW: 198.3 g
  Hb: 12 g/dL
  Ht: 36.2%
  MCH: 21.2 pg
  Plat: 128.8 x10_4/uL
[18]
  ALT: 45.2 IU/L
  BUN: 8.5 mg/dL
  TG: 58.9 mg/dL
[19]
  TERMINAL_BW: 206.3 g
  Hb: 12.3 g/dL
  Ht: 37.3%
  MCH: 21.1 pg
  Plat: 119 x10_4/uL
[20]
  ALT: 52.4 IU/L
  BUN: 13.6 mg/dL
  TG: 96 mg/dL
[21]
  TERMINAL_BW: 204.1 g
  Hb: 12.3 g/dL
  Ht: 37.7%
  MCH: 20.7 pg
  Plat: 116 x10_4/uL
[22]
  ALT: 51.8 IU/L
  BUN: 13.9 mg/dL
  TG: 67.1 mg/dL
[23]
  TERMINAL_BW: 200.7 g
  Hb: 12.4 g/dL
  Ht: 37.4%
  MCH: 21 pg
  Plat: 119.4 x10_4/uL
[24]
  ALT: 47.8 IU/L
  BUN: 10.9 mg/dL
  Ca: 10 mg/dL
  TG: 65.8 mg/dL
[25]
  TERMINAL_BW: 200.2 g
  Hb: 12.3 g/dL
  Ht: 37.7%
  MCH: 20.7 pg
  Plat: 112.6 x10_4/uL
[26]
  ALT: 50 IU/L
  BUN: 9 mg/dL
  Ca: 10 mg/dL
  TG: 55.3 mg/dL
[27]
  TERMINAL_BW: 204.9 g
  Hb: 12.1 g/dL
  Ht: 36.5%
  MCH: 20.7 pg
  Plat: 122.8 x10_4/uL
[28]
  ALT: 52.6 IU/L
  BUN: 12.1 mg/dL
  Ca: 10 mg/dL
  TG: 70.4 mg/dL
